Results as given in ChEMBL document CHEMBL3244044, “Synthesis and antitumor activity of halogen-substituted 4-(3,3-dimethyl-1-triazeno)quinolines” (J Med Chem, 1978).

Columns and labels:
Settings in all cases: route intraperitoneal
B16 [1] = test: Antitumor activity against mouse B16 cells allografted mouse assessed as host survival at 130 mg/kg, ip qd for 9 days relative to control
B16 [2] = test: Antitumor activity against mouse B16 cells allografted mouse assessed as host survival at 77.8 mg/kg, ip qd for 9 days relative to control
B16 [3] = test: Antitumor activity against mouse B16 cells allografted mouse assessed as host survival at 216 mg/kg, ip qd for 9 days relative to control

NC(=O)c1nc[nH]c1/N=N/N(CCCl)CCCl
Survival (B16 [1]): 32.8 days
T/C (B16 [1]): 156%
Survival (B16 [2]): 25 days
T/C (B16 [2]): 119%
Survival (B16 [3]): 15.3 days
T/C (B16 [3]): 73%
